This passage reports Ki results from patent US7488745B2, “Compounds for the treatment of inflammatory disorders” (Schering Corporation, priority 2004, dated 2009).

Sequences of proteins named here, by UniProt entry; tags and fusion partners are left off. Residues count along the entry.
UniProt P78536, 215-477 S266A/N452Q limits assumed: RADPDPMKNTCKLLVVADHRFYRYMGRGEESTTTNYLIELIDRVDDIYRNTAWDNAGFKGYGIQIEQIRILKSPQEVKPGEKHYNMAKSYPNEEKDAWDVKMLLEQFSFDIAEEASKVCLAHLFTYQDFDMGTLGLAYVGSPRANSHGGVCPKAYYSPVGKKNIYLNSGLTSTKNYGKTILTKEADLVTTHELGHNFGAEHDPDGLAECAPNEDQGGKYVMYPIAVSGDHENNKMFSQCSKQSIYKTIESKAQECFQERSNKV

pKi: −log10 of the molar value.

For one assay, the target named is purified catalytic domain of recombinant human TACE (rhTACEc) (Homo sapiens, UniProt P78536, N452Q/S266A). Description: TACE kinetic assay: cleavage of internally quenched peptide substrate SPDL-3 (fluorescence). Conditions: Ki (nM), Specific TACE inhibitory activity (Ki values).
`CC#CCOc1ccc2c(c1)C(=O)N(C[C@@]1(c3ccc(-c4cnccn4)cc3)NC(=O)NC1=O)C2` [Compound 4012]: the Ki – broadly, a dissociation constant, usually derived from enzyme kinetics or from competition with a known ligand – was 0.5 nM.

`COc1ccc2c(c1)C(=O)N(C[C@@]1(c3ccc(-c4ccc5c(cnn5CC5CC5)c4)cc3)NC(=O)NC1=O)C2` [Compound 7012]: the Ki turned out to be 2.75 nM. Same read-out and setting: the result for `O=C1NC(=O)[C@](CN2Cc3ccc(F)cc3C2=O)(c2ccc(-c3cc(O)ncc3Cl)cc2)N1` [Compound 123] reads 1.2 nM; that for `COc1ccc2c(c1)C(=O)N(C[C@@]1(c3ccc(-c4cccc5cccnc45)cc3)NC(=O)NC1=O)C2` [Compound 3009], 1.47 nM; that for `O=C1NC(=O)[C@](CN2Cc3ccc(F)cc3C2=O)(c2ccc(-c3ccccn3)s2)N1` [Compound 278], 2.2 nM.

`COc1ccc2c(c1)C(=O)N(C[C@@]1(c3ccc(-c4cnn(CC5CC5)c4)cc3)NC(=O)NC1=O)C2` [Compound 5006]: the inhibition constant Ki was determined as 0.5 nM. On the same count and under the same terms, the result for `CC#CCOc1ccc2c(c1)C(=O)N(C[C@@]1(c3ccc(F)cc3)NC(=O)NC1=O)C2` [Compound 203] reads 0.23 nM.

The same assay, now with this note: Ki (nM), TABLE 6000; Ki printed as class symbols A-D.
As to `COc1ccc2c(c1)C(=O)N(C[C@@]1(CCc3cc(F)cc(F)c3)NC(=O)NC1=O)C2` [Compound 9241], the Ki is under 10 nM.

`COc1ccc2c(c1)C(=O)N(C[C@@]1(c3cc4cnccc4s3)NC(=O)NC1=O)C2` [Compound 9222]: the inhibition constant Ki is under 10 nM.

For the molecule `COc1ccc2c(c1)C(=O)N(CC1(c3cnc(-c4cccnc4)nc3)NC(=O)NC1=O)C2` (centres unmarked) [Compound 9653], the inhibition constant (Ki) is under 10 nM. On the same count and under the same terms, for `COc1ccc2c(c1)C(=O)N(C[C@@]1(c3ccc(-c4cccc5c4SCC(=O)N5)cc3)NC(=O)NC1=O)C2` [Compound 9760] the value was under 10 nM; for `COc1ccc2c(c1)C(=O)N(C[C@@]1(c3ccc(-c4cnn5ccccc45)cc3)NC(=O)NC1=O)C2` [Compound 9708], under 10 nM. The same measure, in the same setting: the result for `COc1ccc2c(c1)C(=O)N(C[C@@]1(c3cnn([C@@H]4CCOC4)c3)NC(=O)NC1=O)C2` [Compound 9003K] reads under 10 nM; that for `CC#CCOc1ccc2c(c1)C(=O)N(C[C@@]1(c3ccc(-c4ccc5nn(C(C)C)cc5c4)cc3)NC(=O)NC1=O)C2` [Compound 9751], under 10 nM; that for `COc1ccc2c(c1)C(=O)N(C[C@@]1(c3ccc(-c4ccc5c(c4)c(C)nn5C)cc3)NC(=O)NC1=O)C2` [Compound 9704], under 10 nM.

For `COc1ccc2c(c1)C(=O)N(C[C@@]1(c3ccc(Oc4cncnc4)cc3)NC(=O)NC1=O)C2` [Compound 9618], the Ki is under 10 nM. On the same count and under the same terms, for `COc1ccc2c(c1)C(=O)N(C[C@@]1(c3cnn(-c4ccc(F)cc4)n3)NC(=O)NC1=O)C2` [Compound 9268] the value was under 10 nM; for `COc1ccc2c(c1)C(=O)N(C[C@@]1(c3ccc(Oc4ccccn4)cc3)NC(=O)NC1=O)C2` [Compound 9613], under 10 nM; for `COc1ccc2c(c1)C(=O)N(C[C@@]1(/C(Cl)=C/c3ccc4ccccc4n3)NC(=O)NC1=O)C2` [Compound 9234], under 10 nM. On the same count and under the same terms, for `COc1ccc2c(c1)C(=O)N(C[C@@]1(c3ccc(-c4ncccc4F)cc3)NC(=O)NC1=O)C2` [Compound 9915] the value was under 10 nM; for `COc1ccc2c(c1)C(=O)N(C[C@@]1(c3oc4cccnc4c3O)NC(=O)NC1=O)C2` [Compound 9935], under 10 nM.

Staying with this assay, now noted: Ki (nM), TACE inhibitory activity, class letters.
As to `O=C1NC(=O)[C@@](CN2Cc3ccc(Cl)cc3C2=O)([C@H](O)CO)N1` [Compound 284], the Ki was over 1000 nM.

With `O=C1NC(=O)[C@](CN2Cc3ccc(Cl)cc3C2=O)([C@H](O)CO)N1` [Compound 283], the Ki was in the range of 10 to 100 nM. Same read-out and setting: the result for `O=C1NC(=O)C(CN2Cc3cc(OCCc4c[nH]c5ccccc45)ccc3C2=O)(c2ccc(Br)cc2)N1` (centres unmarked) [Compound 225] reads under 10 nM; that for `O=C1NC(=O)C(CN2Cc3ccc(O)cc3C2=O)(c2ccc(-c3ccccn3)s2)N1` (centres unmarked) [Compound 280], under 10 nM; that for `O=C1NC(=O)[C@](CN2Cc3ccc(F)cc3C2=O)(c2ccc(-c3ccc(C(F)(F)F)cc3)cc2)N1` [Compound 127], 10 to 100 nM. As for `COc1ccc2c(c1)CN(CC1(c3ccc(-n4cccn4)cc3)NC(=O)NC1=O)C2=O` (centres unmarked) [Compound 29], the Ki was under 10 nM.

As for `O=C1NC(=O)[C@](CN2Cc3ccc(F)cc3C2=O)(c2ccc(-c3ccccn3)cc2)N1` [Compound 114], the inhibition constant (Ki) is under 10 nM. On to `CCNC(=O)N1CCC(C2(CN3Cc4cc(OC)ccc4C3=O)NC(=O)NC2=O)CC1` (centres unmarked) [Compound 253], for which the Ki was in the range of 10 to 100 nM.

Take `COc1ccc(S(=O)(=O)N2CCC(C3(CN4Cc5cc(OC)ccc5C4=O)NC(=O)NC3=O)CC2)cc1` (centres unmarked) [Compound 255]: the Ki is 10 to 100 nM. On the same count and under the same terms, for `O=C1NC(=O)[C@](CN2Cc3ccc(F)cc3C2=O)(c2ccc(-c3cc(O)ncc3Cl)cc2)N1` [Compound 123] the value was under 10 nM. Same read-out and setting: the result for `COc1ccc2c(c1)CN(CC1(c3ccc4cccnc4c3)NC(=O)NC1=O)C2=O` (centres unmarked) [Compound 263] reads under 10 nM; that for `COc1ccc2c(c1)CN(CC1(c3ccc(NC=O)cc3)NC(=O)NC1=O)C2=O` (centres unmarked) [Compound 287], 10 to 100 nM.

As to `COc1ccc2c(c1)CN(CC1(C3CCN(C4CCNCC4)CC3)NC(=O)NC1=O)C2=O` (centres unmarked) [Compound 273], the Ki fell in the range of 100 to 1000 nM. Take `COc1cc(-c2ccc([C@]3(CN4Cc5ccc(F)cc5C4=O)NC(=O)NC3=O)cc2)ccn1` [Compound 122]: the inhibition constant Ki was under 10 nM. Consider `CC1(CN2Cc3c(ccc(O)c3I)C2=O)NC(=O)NC1=O` (centres unmarked) [Compound 206], for which the inhibition constant Ki lay in the range of 100 to 1000 nM. Same read-out and setting: for `COc1ccc2c(c1)CN(CC1(CNC3CCNCC3)NC(=O)NC1=O)C2=O` (centres unmarked) [Compound 289] the value was 100 to 1000 nM; for `COc1ccc2c(c1)CN(CC1(C3CCN(C(C)=O)CC3)NC(=O)NC1=O)C2=O` (centres unmarked) [Compound 268], under 10 nM. `O=C1NC(=O)[C@](CN2Cc3ccc(F)cc3C2=O)(c2ccc(-c3nc4ccccc4s3)cc2)N1` [Compound 160]: the inhibition constant (Ki) is under 10 nM. Same read-out and setting: for `O=C1NC(=O)[C@](CN2Cc3ccc(F)cc3C2=O)(c2ccc(-c3ccncc3F)cc2)N1` [Compound 116] the value was under 10 nM; for `NC(=O)CCC1(CN2Cc3ccc(Cl)cc3C2=O)NC(=O)NC1=O` (centres unmarked) [Compound 294], 10 to 100 nM. On to `O=C1NC(=O)[C@](CN2Cc3ccc(OCc4cc(-c5ccccc5)nc5ccccc45)cc3C2=O)(c2ccccc2)N1` [Compound 200], for which the inhibition constant Ki is 10 to 100 nM. Still for that read-out and setting: the result for `O=C1NC(=O)[C@](CN2Cc3ccc(F)cc3C2=O)(c2ccc(-c3ccccn3)s2)N1` [Compound 278] reads under 10 nM. With `Cn1cc(-c2ccc([C@]3(CN4Cc5ccc(F)cc5C4=O)NC(=O)NC3=O)cc2)cn1` [Compound 146], the Ki was under 10 nM.

As to `CC(C)(C)C1(CN2Cc3ccc(Cl)cc3C2=O)NC(=O)NC1=O` (centres unmarked) [Compound 295], the inhibition constant Ki was 10 to 100 nM.

`COc1ccc2c(c1)CN(CC1(C3CCN(S(=O)(=O)c4ccc(Cl)cc4)CC3)NC(=O)NC1=O)C2=O` (centres unmarked) [Compound 271]: the Ki fell in the range of 10 to 100 nM. Same read-out and setting: the result for `O=C1NC(=O)[C@](CN2Cc3ccc(F)cc3C2=O)(c2ccc(-c3cc(F)ccc3F)cc2)N1` [Compound 135] reads under 10 nM; that for `CC#CCOc1ccc2c(c1)C(=O)N(C[C@@]1(c3ccc(F)cc3)NC(=O)NC1=O)C2` [Compound 203], under 10 nM; that for `CC#CCOc1ccc2c(c1)CN(C[C@@]1(c3ccc(Br)cc3)NC(=O)NC1=O)C2=O` [Compound 215], under 10 nM.

Still in this assay, the particulars now being: Ki Rating, TACE inhibitory activity, Table 3000.
Turning to `CC#CCOc1ccc2c(c1)C(=O)N(C[C@@]1(c3ccc(-c4cnccn4)cc3)NC(=O)NC1=O)C2` [Compound 4012], the pKi (in general, −log10 of the Ki, conventionally taken in molar units) is over 8.00. With `O=C1NC(=O)C(CN2Cc3ccc(F)cc3C2=O)(c2cccnc2)N1` (centres unmarked) [Compound 8008], the pKi was 7.00 to 8.00. On to `COc1ccc2c(c1)CN(CC1(c3ccc(C)cc3)NC(=O)NC1=O)C2=O` (centres unmarked) [Compound 5018], for which the pKi was over 8.00. The same measure, in the same setting: for `Nc1ncc(-c2ccc([C@]3(CN4Cc5ccc(F)cc5C4=O)NC(=O)NC3=O)cc2)cn1` [Compound 8001] the value was over 8.00. `O=C1NC(=O)[C@](CN2Cc3ccc(OCC#CCO)cc3C2=O)(c2ccc(-c3cccnc3)cc2)N1` [Compound 4015]: the negative logarithm of the Ki (pKi) is over 8.00. With `O=C1NC(=O)C(CN2Cc3ccc(C(F)(F)F)cc3C2=O)(c2ccc(F)cc2)N1` (centres unmarked) [Compound 5003], the pKi was 7.00 to 8.00.

Take `COc1ccc2c(c1)C(=O)N(C[C@@]1(c3ccc(-c4ccc5c(cnn5CC5CC5)c4)cc3)NC(=O)NC1=O)C2` [Compound 7012]: the pKi was over 8.00.

For the molecule `COc1ccc2c(c1)C(=O)N(C[C@]1(c3ccc(-c4cnn(C)c4C(F)(F)F)cc3)NC(=O)NC1=O)C2` [Compound 3018], the pKi is 7.00 to 8.00. The same measure, in the same setting: the result for `O=C1NC(=O)[C@](CN2Cc3ccc(F)cc3C2=O)(c2ccc(-c3ccc4cn[nH]c4c3)cc2)N1` [Compound 6005] reads over 8.00; that for `Cc1ncoc1COc1ccccc1C1(CN2Cc3ccc(F)cc3C2=O)NC(=O)NC1=O` (centres unmarked) [Compound 6029], 7.00 to 8.00.

For `COc1ccc2c(c1)C(=O)N(C[C@@]1(c3ccc(-c4cncc(C#N)c4)cc3)NC(=O)NC1=O)C2` [Compound 4024], the pKi is over 8.00.

As for `COc1ccc2c(c1)C(=O)N(C[C@@]1(c3ccc(-c4ccc5c(cnn5C(C)C)c4)cc3)NC(=O)NC1=O)C2` [Compound 7010], the pKi was over 8.00. On the same count and under the same terms, the result for `COc1ccc2c(c1)C(=O)N(C[C@@]1(c3ccc(-c4cccc5cccnc45)cc3)NC(=O)NC1=O)C2` [Compound 3009] reads over 8.00; that for `COc1ccc2c(c1)C(=O)N(C[C@@]1(c3ccc(-c4c(C)nn(C)c4C)cc3)NC(=O)NC1=O)C2` [Compound 3033], over 8.00. On the same count and under the same terms, for `COc1ccc2c(c1)C(=O)N(C[C@@]1(c3ccc(-c4ccc(-c5ccccn5)s4)cc3)NC(=O)NC1=O)C2` [Compound 3034] the value was over 8.00. On the same count and under the same terms, for `CC#CCOc1ccc2c(c1)C(=O)N(C[C@@]1(c3ccc(-c4cccnc4O)cc3)NC(=O)NC1=O)C2` [Compound 4017] the value was over 8.00; for `Cn1cnc2c(-c3ccc([C@]4(CN5Cc6ccc(OC(F)F)cc6C5=O)NC(=O)NC4=O)cc3)ncnc21` [Compound 3048], over 8.00. For `O=C1NC(=O)[C@](CN2Cc3ccc(F)cc3C2=O)(c2ccc(-c3cc(O)nc4ccccc34)cc2)N1` [Compound 8004], the pKi was over 8.00.

As to `CC1(CN2Cc3ccc(C(F)(F)F)cc3C2=O)NC(=O)NC1=O` (centres unmarked) [Compound 5004], the pKi is 6.00 to 7.00. On to `COc1ccc2c(c1)C(=O)N(C[C@@]1(c3ccc(-c4cnn(CC5CC5)c4)cc3)NC(=O)NC1=O)C2` [Compound 5006], for which the negative logarithm of the Ki (pKi) is over 8.00. The same measure, in the same setting: for `O=C1NC(=O)[C@@](CN2Cc3ccc(OCC#CCO)cc3C2=O)(c2ccc(-c3cnccn3)cc2)N1` [Compound 4011] the value was 6.00 to 7.00; for `COc1ccc2c(c1)C(=O)N(C[C@@]1(c3ccc(-c4cnn(CC(C)C)c4)cc3)NC(=O)NC1=O)C2` [Compound 6014], over 8.00.
